From patent publication US20030220312A1, “Epoxy-steroidal aldosterone antagonist and calcium channel blocker combination therapy for treatment of cardiovascular disorders” (G.D. Searle & Co., priority 2000, published 2003)

Experiment: Thermogravimetry / DSC of eplerenone solvates (desolvation)
Assay type: physicochemical
Conditions: eplerenone solvate of the named solvent; extrapolated from final solvent weight loss step, thermogravimetric analysis at 10° C./minute under nitrogen purge
Protocol: Each sample (1-10 mg) was placed in an unsealed aluminum pan and heated at 10° C./minute. One or more endothermal events at lower temperatures were associated with enthalpy changes that occurred as solvent was lost from the solvate crystal lattice. The highest temperature endotherm or endotherms were associated with the melting/decomposition of Form L or Form H eplerenone.
Thermogravimetric analysis of solvates was performed using a TA Instruments TGA 2950 thermogravimetric analyzer. Samples were placed in an unsealed aluminum pan under nitrogen purge. Starting temperature was 25° C. with the temperature increased at a rate of about 10° C./minute.

CCCO [n-Propanol]
Desolvation Temperature: 129 °C
